According to PubChem BioAssay AID463104 (Sanford-Burnham Center for Chemical Genomics, 2010):
Only a part is listed here, and it is no random draw. Some salts or complexes appear as unconnected parts, following the source record. The source made the active and inactive calls.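 How the source made its calls: active means versus positive control, 20 µM dose yields 30% or more activation; inactive means the rest.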

Experiment: IRE1-XBP1 pathway stimulators – cell-based, CHO-XBP1 luciferase reporter, luminescence, uHTS, primary screen (AID 463104);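 further: 100% = tunicamycin at 10 µg/mL and 0% = DMSO only wells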
Conditions: IRE1-XBP1 UPR activation, at 20 µM, stronger effect = higher value, percent of tunicamycin response, DMSO as zero
Procedure, shortened: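 Material: CHO cell line with stable XBP1 luciferase reporter; buffer or medium: F12 medium containing 10% fetal bovine serum; compound: single point, 20 µM final compound, 1% DMSO; incubation: 6 h treatment, 37 °C; measured by: glow luminescence from Steady-Glo reagent; evaluation: activation, % of tunicamycin; control set: tunicamycin high, DMSO low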

SMILES | activation
CP(=O)(OCCOc1ccccc1)OCCOc1ccccc1 | inactive: -0.42%
CP(=O)(Nc1ccc(Cl)cc1Cl)Oc1ccccc1 (configuration not stated) | inactive: -0.03%
Cc1nc2ccc3ccccc3c2o1.O=[N+]([O-])c1cc([N+](=O)[O-])c(O)c([N+](=O)[O-])c1 | inactive: 1.96%
COc1ccccc1OP(C)(=O)Nc1ccc(C)c(C)c1 (configuration not stated) | inactive: -3.1%
COc1ccc(OP(C)(=O)Nc2ccccc2Br)cc1 (configuration not stated) | inactive: -1.96%
Cc1cc(C)cc(OP(C)(=O)Nc2cccc(C(F)(F)F)c2)c1 (configuration not stated) | inactive: -1.6%
CP(=O)(Nc1ccccn1)Oc1ccccc1 (configuration not stated) | inactive: 1.74%
COc1ccccc1OP(C)(=O)Nc1ccc(C)cc1C (configuration not stated) | inactive: 0.51%
CCc1ccc(OP(C)(=O)O)cc1 | inactive: 5.38%
O=[N+]([O-])c1cc([N+](=O)[O-])c(Nc2ccccn2)c([N+](=O)[O-])c1 | inactive: -3.36%
Cc1c(NP(C)(=O)Oc2ccc(C(C)C)cc2)c(=O)n(-c2ccccc2)n1C (configuration not stated) | inactive: -0.28%
COc1ccc(OP(C)(=O)Nc2ccccn2)cc1 (configuration not stated) | inactive: -2.05%
CN(C)CCOC(=O)C(O)(c1ccccc1)C1CCCC1 (configuration not stated) | inactive: -0.38%
COc1ccccc1OP(C)(=O)Nc1ccc(Br)cc1 (configuration not stated) | inactive: -1.92%
CN(C)C(=O)c1c([N+](=O)[O-])cc([N+](=O)[O-])cc1[N+](=O)[O-] | inactive: -1.89%
CC(C)(C)c1ccc(OP(C)(=O)O)cc1 | inactive: -1.25%
COc1ccccc1OP(C)(=O)Nc1ccccc1Br (configuration not stated) | inactive: -3.39%
CP(=O)(Nc1ccc(Cl)cc1)Oc1ccc(F)cc1 (configuration not stated) | inactive: -6.86%
COc1ccccc1OP(C)(=O)Nc1c(C)n(C)n(-c2ccccc2)c1=O (configuration not stated) | inactive: -3.08%
O=C(OCCCN1CCCC1)C(O)(c1ccccc1)C1CCCCC1 (configuration not stated) | inactive: 1.49%
CP(=O)(Oc1ccccc1)N1CCOC1=O (configuration not stated) | inactive: 0.51%
CCc1ccc(OP(C)(=O)Nc2cccnc2)cc1 (configuration not stated) | inactive: 0.24%

SMILES | activation
CCN(CC)CC(O)COC(=O)C(O)(c1ccccc1)C1CCCCC1 (configuration not stated) | inactive: -0.13%
COc1ccc(OP(C)(=O)Nc2ccc(Br)cc2)cc1 (configuration not stated) | inactive: -3.45%
CCOC(=O)c1ccc(NP(C)(=O)Oc2ccc(Cl)cc2)cc1 (configuration not stated) | inactive: -2.45%
CP(=O)(OC12CC3CC(CC(C3)C1)C2)OC12CC3CC(CC(C3)C1)C2 | inactive: 1.21%
Nc1ccc2c(ccc3cccnc32)n1.O=[N+]([O-])c1cc([N+](=O)[O-])c(O)c([N+](=O)[O-])c1 | inactive: 0.58%
O=[N+]([O-])c1cc([N+](=O)[O-])c(NCC2CCS(=O)(=O)C2)c([N+](=O)[O-])c1 (configuration not stated) | inactive: -2.27%
CN(C)CCOC(=O)C(O)(c1ccccc1)C1CCCCC1 (configuration not stated) | inactive: -0.44%
COc1ccc(NP(C)(=O)Oc2ccccc2OC)cc1 (configuration not stated) | inactive: -4.62%
COc1ccc(OP(C)(=O)Nc2cccc(Br)c2)cc1 (configuration not stated) | inactive: -2.32%
Cc1ccccc1NP(C)(=O)Nc1ccccc1C | inactive: -2.03%
CP(=O)(Nc1ccc2c(c1)OCCO2)Oc1ccccc1 (configuration not stated) | inactive: -3.45%
CCOP(C)(=S)SCC(=O)NC(C)(CC)C(=O)O (configuration not stated) | inactive: -2.24%
CP(=O)(Nc1ccc(SC(F)(F)F)cc1)Oc1ccc(F)cc1 (configuration not stated) | inactive: -0.77%
COc1ccc2c(c1O)-c1c(O)c(OC)cc3c1[C@H](C2)[N+](C)(C)CC3.O=[N+]([O-])c1cc([N+](=O)[O-])c([O-])c([N+](=O)[O-])c1[O-] | inactive: 0.09%
O=C(OC1CN2CCC1CC2)c1ccc([N+](=O)[O-])cc1 (configuration not stated) | inactive: -2.56%
O=C(OCCN1CCN(CCOCc2ccccc2)CC1)C(O)(c1ccccc1)c1ccccc1 | inactive: 1.32%
CP(=O)(Nc1ccccc1F)Oc1ccccc1 (configuration not stated) | inactive: -1.18%
CC(C)c1ccc(OP(C)(=O)Nc2ccc(SC(F)(F)F)cc2)cc1 (configuration not stated) | inactive: -2.67%
CP(=O)(Nc1ccccc1)Oc1ccc(F)cc1 (configuration not stated) | inactive: -1.98%
CCCCCOc1ccc(NP(C)(=O)Oc2ccc(Cl)cc2Cl)cc1 (configuration not stated) | inactive: -4.27%
O=[N+]([O-])c1cc([N+](=O)[O-])c(OC2CCCCC2O)c([N+](=O)[O-])c1 (configuration not stated) | inactive: -4.87%
CCN(CC)CCCOC(=O)C(O)(c1ccccc1)C1CCCCC1 (configuration not stated) | inactive: 0.43%

SMILES | activation
CCOC(=O)c1ccc(NP(C)(=O)Oc2ccc(F)cc2)cc1 (configuration not stated) | inactive: -2.35%
COc1ccc(OP(C)(=O)Nc2ccc(SC(F)(F)F)cc2)cc1 (configuration not stated) | inactive: 3.58%
CC1=NCCc2c1[nH]c1ccccc21.O=[N+]([O-])c1cc([N+](=O)[O-])c(O)c([N+](=O)[O-])c1 | inactive: -1.48%
O=C(O)c1cccc(Nc2c([N+](=O)[O-])cc([N+](=O)[O-])cc2[N+](=O)[O-])c1 | inactive: -2.55%
Cc1ccc(C)c(NP(C)(=O)Oc2ccccc2)c1 (configuration not stated) | inactive: -3.24%
CP(=O)(Nc1cccc(Br)c1)Oc1ccccc1 (configuration not stated) | inactive: -4.63%
Cc1cc(C)cc(OP(C)(=O)Nc2ccccn2)c1 (configuration not stated) | inactive: -5.86%
CCOC(=O)c1ccc(NP(C)(=O)Oc2cc(C)cc(C)c2)cc1 (configuration not stated) | inactive: -2.73%
Cc1cc(C)cc(OP(C)(=O)Nc2ccc(C)cc2C)c1 (configuration not stated) | inactive: -3.52%
COc1ccccc1OP(C)(=O)Nc1cccc(Br)c1 (configuration not stated) | inactive: -0.5%
Cc1nc2ccc3ccccc3c2s1.O=[N+]([O-])c1cc([N+](=O)[O-])c(O)c([N+](=O)[O-])c1 | inactive: 1.42%
O=[N+]([O-])c1cc([N+](=O)[O-])c(-c2cnn(-c3ccccc3)c2)c([N+](=O)[O-])c1 | inactive: 11.4%
O=[N+]([O-])c1cc([N+](=O)[O-])c(-n2nnc3ccccc32)c([N+](=O)[O-])c1 | inactive: -1.01%
CP(=O)(Nc1ccc(SC(F)(F)F)cc1)Oc1ccccc1 (configuration not stated) | inactive: -0.3%
CCCOc1ccc(NP(C)(=O)Oc2ccc(Cl)cc2)cc1 (configuration not stated) | inactive: -3.48%
CN1CCCCC1COC(=O)C1(O)c2ccccc2CCc2ccccc21 (configuration not stated) | inactive: 1.42%
COc1ccccc1OP(C)(=O)Nc1c(C)cccc1C (configuration not stated) | inactive: 0.56%
O=[N+]([O-])c1cc([N+](=O)[O-])c(Nc2nnnn2CCO)c([N+](=O)[O-])c1 | inactive: -7.17%
CC1=C2N=C(C=C3N=C(C(C)=C4[N-][C@@](C)([C@@H]5N=C1[C@](C)(CCC(=O)NC[C@@H](C)OP(=O)([O-])O[C@H]1[C@@H](O)[C@@H](n6cnc7cc(C)c(C)cc76)O[C@@H]1CO)[C@H]5CC(N)=O)[C@@](C)(CC(N)=O)[C@@H]4CCC(N)=O)[C@@](C)(CC(N)=O)[C@@H]3CCC(N)=O)C(C)(C)[C@@H]2CCC(N)=O.[C-]#N.[Co+3] | inactive: -10.5%
CCOC(=O)C(CC)C1=NC(C)(C)Cc2ccccc21.O=[N+]([O-])c1cc([N+](=O)[O-])c(O)c([N+](=O)[O-])c1 (configuration not stated) | inactive: 0%
CP(=O)(Nc1ccccc1Br)Oc1ccccc1 (configuration not stated) | inactive: -2.55%
COc1ccccc1OP(C)(=O)Nc1ccccc1 (configuration not stated) | inactive: 2.96%

SMILES | activation
CP(=S)(Nn1cnnc1)Oc1ccccc1 (configuration not stated) | inactive: 1.69%
CP(=O)(Nc1ccccn1)Oc1ccc(Cl)cc1 (configuration not stated) | inactive: -2.05%
O=[N+]([O-])c1cc([N+](=O)[O-])c(O)c([N+](=O)[O-])c1.c1ccc(Oc2ccncc2)cc1 | inactive: -6.21%
CCOC(=O)c1ccc(NP(C)(=O)Oc2ccc(OC)cc2)cc1 (configuration not stated) | inactive: -1.85%
CCOP(C)(=S)SCC(=O)NC(C)C(=O)O (configuration not stated) | inactive: -2.45%
CCc1ccc(OP(C)(=O)N2CCN(c3ccc([N+](=O)[O-])cc3)CC2)cc1 (configuration not stated) | inactive: -1.57%
CP(=O)(NC(=O)Nc1ccccc1)Oc1ccccc1 (configuration not stated) | inactive: 0.56%
Cc1cc(C)cc(OP(C)(=O)Nc2ccc(SC(F)(F)F)cc2)c1 (configuration not stated) | inactive: -1.23%
CP(=O)(Nc1ccc(SC(F)(F)F)cc1)Oc1ccc(Cl)cc1 (configuration not stated) | inactive: -1.76%
Cc1cccc(C)c1OP(C)(=O)Nc1ccc(SC(F)(F)F)cc1 (configuration not stated) | inactive: 0.93%
CP(=O)(Oc1ccccc1)OC(c1ccccc1)C(F)(F)F (configuration not stated) | inactive: -0.62%
CCN(CC)CCCOC(=O)C(O)(c1ccccc1)c1ccccc1 | inactive: -3.66%
Cc1cc(C)cc(OP(C)(N)=O)c1 (configuration not stated) | inactive: -1.13%
COc1ccccc1OP(C)(=O)Nc1cc(Cl)ccc1C (configuration not stated) | inactive: 1.07%
COc1ccc(OP(C)(=O)Nc2cccc(F)c2)cc1 (configuration not stated) | inactive: -1.59%
COc1ccccc1OP(C)(=O)Nc1ccc(C)cc1 (configuration not stated) | inactive: -2.38%
Cc1ccc(NP(C)(=O)Oc2ccccc2)c(C)c1 (configuration not stated) | inactive: -2.65%
CCOC(=O)c1ccc(NP(C)(=O)Oc2ccccc2)cc1 (configuration not stated) | inactive: 1.25%
CC(C)(C)c1ccc(OP(C)(=O)Nc2ccc(SC(F)(F)F)cc2)cc1 (configuration not stated) | inactive: -2.05%
Cc1cccc(C)c1OP(C)(N)=O (configuration not stated) | inactive: -0.62%
O=[N+]([O-])c1cc([N+](=O)[O-])c(Nc2cccnc2)c([N+](=O)[O-])c1 | inactive: -0.45%
